# Results from EP1500700B1, “Use of a pectic acid lyase in a detergent” (KAO CORPORATION, priority 1997, dated 1998).
# System: pectic acid lyases from Example 3 and Example 8
# Experiment: Effects of a specific inhibitor on residual activity
# Type: biochemical, Bacillus sp. KSM-P15
# Details: inhibitor 1 mM, 50 mM Tris-HCl buffer pH 7.5, 30°C, one hour; both enzymes
smiles,measurement,value
O=[N+]([O-])c1cc([N+](=O)[O-])c(S(=O)(=O)O)c([N+](=O)[O-])c1,percentage inhibition,75-80%
